Among the data in patent US20040002117A1 (CBR INSTITUTE FOR BIOMEDICAL RESEARCH INC A MASSACHUSETTS, published 2004) are IC50 values, retold here.

For the test, the target named is calcineurin. Nature of the test: competition: inhibition of 125I-calcineurin (14 nM) binding to GST-NFAT1(1-400) on glutathione-Sepharose beads, filter wash, gamma counting.

B1: wild type 26-mer SPRIEITPS peptide (peptide)
peptide: KPAGASGPSPRIEITPSHELMQAGGY
notes: also called wild type 26-mer peptide; CM2 peptide
A word on the IC50: it is the midpoint of a concentration-inhibition curve. Turning to B1, the IC50 is ~15 µM.

B2: wild type 13-mer SPRIEITPS peptide of murine NFAT1 (peptide)
peptide: SGPSPRIEITPSH
notes: also called wild type 13-mer peptide; SPRIEIT-13
With B2, the IC50 is ~15 µM.
